{"source": "PubChem BioAssay AID485349", "about": "(National Center for Advancing Translational Sciences (NCATS), 2010)", "note": "This is a selection; strong and weak results do not stand in their true shares. Some salts or complexes appear as unconnected parts, following the source record. Calls of active or inactive are those of the source. The call rests on the fitted dose curve; in most records, active means well fitted activation curve with a large enough effect; inconclusive means small, poorly fitted or top-dose-only effect; inactive means no such curve, though single readings can be large or run the other way."}
{"test": "qHTS Assay for Identifying a Potential Treatment of Ataxia-Telangiectasia; further: % of control where 0% means no effect; nearly all actives have a fitted effect of over 45% in size", "conditions": "[…] A-T fibroblasts, KAP-1 phosphorylation AlphaLISA, neocarzinostatin DNA damage 30 min before lysis; at 57.5 µM (top of the series)", "description": "NIH Chemical Genomics Center [NCGC] NIH Molecular Libraries Probe Centers Network [MLPCN] MLPCN Grant: MH089030-01 Assay Submitter (PI): Wei Zheng and Yosef Shiloh Ataxia-telangiectasia (A-T) is a devastating and progressive disease for which, there is no cure. Although A-T is a multisystem disease, it is stereotyped characterized by its neurological symptoms such as truncal ataxia, due to cerebellar cortical degeneration of the Purkinje and granule cells. Other symptoms of A-T are telangiectasias (dilated blood vessels), primary immunodeficiency, marked sensitivity to ionizing radiation (IR), chromosomal instability and predisposition to cancer. The underlying genetic cause of A-T is null mutations in the ATM (A-T mutated) gene. ATM is a nuclear serine/threonine kinase that functions as a master regulator of the cellular responses to double strand breaks (DSBs) in the DNA. Upon activation by DSBs, ATM phosphorylates a plethora of down stream targets, including KAP-1 on […]. KAP-1 phosphorylation occurs shortly in response to DSBs and mediates global chromatin relaxation, which facilitates DSB repair. To screen for small molecules that will compensate for the loss of ATM in cells derived from A-T patients, we monitored KAP-1 phosphorylation as a readout for ATM-like activity using an AlphaLISA assay.\nqHTS Assay Protocol: Step,Parameter,Value,Description 1. Cell Plating, 3 ul, 500 cells/well in OPTI-MEM, 1% FBS, 1% Pen/Strep 2. Incubation, 16-24 hr, 37C, 5% CO2, 95% humidity 3. Library compounds, 23 nl, 76.7 - 0.61uM dilution series final concentration 4. Incubation, 60 min, 37C, 5% CO2, 95% humidity 5. Reagent, 1 ul, 1600 ng/ml NCS in PBS + 0.05% BSA + 0.005% Tween 20 6. Incubation, 30 min, 37C, 5% CO2, 95% humidity 7. Reagent, 1 ul, Premixed detection reagents and lysis buffer 8. Reagent, 1 ul, 0.6% Antifoam A 9. Incubation, 6 hr, 25C, 95% humidity 10. Readout, EnVision, EnVision plate reader. AlphaScreen 1536-well protocol Cells were plated using medium-binding white solid-bottom tissue culture treated Kalypsys plates. Multidrop dispense of 3 uL of […] (hTERT immortalized A-T patient fibroblast cells). Detection reagent and lysis buffer was 3.75nM Rab-a-pKAP1 antibody bound to 75 ng/ul AlphaScreen SA donor bead, 3.75 nM Biot-M-a-KAP1 antibody bound to AlphaLISA protein A acceptor bead, 0.5x protease inhibitor cocktail and 0.25x PerkinElmer lysis buffer. EnVision protocol for 1536-well AlphaScreen read (30ms excitation, 100ms read), about 10 min/plate."}
{"compound": "CCN1CCC(Nc2cccc(F)c2)CC1", "activation": "inactive: -7.3%"}
{"compound": "CN(C)c1ccc(C(=O)NCC2(N3CCCCC3)CCCCC2)cc1", "activation": "inactive: 3.15%"}
{"compound": "O=C(NCC1(N2CCCCC2)CCCCC1)c1ccco1", "activation": "inactive: -1.53%"}
{"compound": "COc1cc(OC)cc(C(=O)NCC2(N3CCCCC3)CCCCC2)c1", "activation": "inactive: 14.9%"}
{"compound": "Fc1ccccc1NC1CCN(Cc2ccccc2)CC1", "activation": "inactive: -3.12%"}
{"compound": "Cc1ccc(C(=O)NCC2(N3CCCCC3)CCCCC2)o1", "activation": "inactive: 0.846%"}
{"compound": "CCC(CO)(C(=O)OC1CN2CCC1CC2)c1ccccc1", "note": "(configuration not stated)", "activation": "inactive: 2.3%"}
{"compound": "COc1cccc(C(=O)N(c2cc(C)cc(C)c2)C2CCN(C(=O)OC(C)(C)C)CC2)c1", "activation": "inactive: -10%"}
{"compound": "COc1cc(OC)cc(C(=O)NCC2(N3CCOCC3)CCCCC2)c1", "activation": "inactive: 1.49%"}
{"compound": "CCCOc1ccc(C)cc1CN(CCCl)CCCl", "activation": "inactive: 2.27%"}
{"compound": "CN1CCC(Nc2ccc(Cl)cc2)CC1", "activation": "inactive: -5.7%"}
{"compound": "CN1CCC(Nc2ccc(F)c(Cl)c2)CC1", "activation": "inactive: 5.2%"}
{"compound": "CCOc1ncccc1C(=O)NCC1(N2CCOCC2)CCCCC1", "activation": "inactive: -1.19%"}
{"compound": "CCCOc1ccc(C(=O)NCC2(N(C)C)CCCCC2)cc1", "activation": "inactive: -2.92%"}
{"compound": "O=C(O)C1(Nc2ccccc2)CCN(Cc2ccccc2)CC1", "activation": "inactive: -10.5%"}
{"compound": "CC(C)(C)OC(=O)N1CCC(Nc2ccccc2)CC1", "activation": "inactive: -0.871%"}
{"compound": "N/C(=N\\O)c1c(N)no[n+]1[O-]", "activation": "inactive: 5.25%"}
{"compound": "CCOC(=O)N1CCC(Nc2ccc(C)cc2)CC1", "activation": "inactive: -9.87%"}
{"compound": "O=C(O)c1cccc(Nc2c([N+](=O)[O-])cc([N+](=O)[O-])cc2[N+](=O)[O-])c1", "activation": "inactive: 0%"}
{"compound": "CCc1cc(C(=O)NCC2(N3CCCCC3)CCCCC2)sc1C", "activation": "inactive: 2.56%"}
{"compound": "O=C(OC1CN2CCC1CC2)C1c2ccccc2C=Cc2ccccc21", "note": "(configuration not stated)", "activation": "inactive: 17.3%"}
{"compound": "O=C(NCC1(N2CCOCC2)CCCCC1)c1cc(Br)ccc1Cl", "activation": "inactive: -2.23%"}
{"compound": "COc1cc(C(=O)NCC2(N3CCOCC3)CCCCC2)cc(OC)c1C", "activation": "inactive: -7.78%"}
{"compound": "COc1ccc(C(=O)NCC2(N3CCOCC3)CCCCC2)cc1OC", "activation": "inactive: 1.42%"}
{"compound": "CCCN1CCC(Nc2cc(OC)cc(OC)c2)CC1", "activation": "inactive: 1.26%"}
{"compound": "c1ccc(CN2CCC(Nc3ccccc3)CC2)cc1", "activation": "inactive: 4.12%"}
{"compound": "CN(C)C1(CNC(=O)c2cccc(C#N)c2)CCCCC1", "activation": "inactive: -5.26%"}
{"compound": "CC(C)(C)OC(=O)N1CCC(N(C(=O)c2ccccc2)c2ccc(Cl)cc2)CC1", "activation": "inactive: -4.35%"}
{"compound": "N#Cc1ccc(C(=O)NCC2(N3CCCCC3)CCCCC2)cc1", "activation": "inactive: -3.65%"}
{"compound": "CCOC(=O)C(CC)C1=NC(C)(C)Cc2ccccc21.O=[N+]([O-])c1cc([N+](=O)[O-])c(O)c([N+](=O)[O-])c1", "note": "(configuration not stated)", "activation": "inactive: -1.04%"}
{"compound": "O=C(NCC1(N2CCCCC2)CCCCC1)c1cccc(C(F)(F)F)c1", "activation": "inactive: 1.67%"}
{"compound": "O=[N+]([O-])c1cc([N+](=O)[O-])c(NCC2CCS(=O)(=O)C2)c([N+](=O)[O-])c1", "note": "(configuration not stated)", "activation": "inactive: 11.3%"}
{"compound": "CC(C)c1ccc(C(=O)NCC2(N3CCOCC3)CCCCC2)cc1", "activation": "inactive: -0.689%"}
{"compound": "COc1ccc(NC2CCN(C(=O)OC(C)(C)C)CC2)cc1", "activation": "inactive: -1.38%"}
{"compound": "CN1CCN(CCOC(=O)C(O)(c2ccccc2)c2ccccc2)CC1", "activation": "inactive: 2.09%"}
{"compound": "COc1cc(C(=O)NCC2(N3CCCCC3)CCCCC2)ccc1OC(F)F", "activation": "inactive: -4.42%"}
{"compound": "O=C(NCC1(N2CCCCC2)CCCCC1)c1ccc(OC(F)F)cc1", "activation": "inactive: -2.93%"}
{"compound": "O=C(NCC1(N2CCCCC2)CCCCC1)c1cccc([N+](=O)[O-])c1", "activation": "inactive: 1.05%"}
{"compound": "CSc1ccc(C(=O)NCC2(N3CCOCC3)CCCCC2)cc1", "activation": "inactive: 1.06%"}
{"compound": "N#CC1(Nc2ccccc2)CCN(CCc2ccccc2)CC1", "activation": "inactive: 3.07%"}
{"compound": "CCN1CCC(Nc2ccc(Cl)cc2)CC1", "activation": "inactive: 0.889%"}
{"compound": "COc1ccc2c(c1O)-c1c(O)c(OC)cc3c1[C@H](C2)[N+](C)(C)CC3.O=[N+]([O-])c1cc([N+](=O)[O-])c([O-])c([N+](=O)[O-])c1[O-]", "activation": "inactive: -16.1%"}
{"compound": "O=C(NCC1(N2CCCCC2)CCCCC1)c1cncc(Br)c1", "activation": "inactive: 3.74%"}
{"compound": "O=C(OC1CN2CCC1CC2)c1ccc([N+](=O)[O-])cc1", "note": "(configuration not stated)", "activation": "inactive: 0.549%"}
{"compound": "CCCOc1ccc(C(=O)NCC2(N(C)C)CCCCC2)cc1OC", "activation": "inactive: -2.27%"}
{"compound": "CN(C)c1cccc(C(=O)NCC2(N3CCCCC3)CCCCC2)c1", "activation": "inactive: 4.36%"}
{"compound": "O=[N+]([O-])c1cc([N+](=O)[O-])c(OC2CCCCC2O)c([N+](=O)[O-])c1", "note": "(configuration not stated)", "activation": "inactive: -0.684%"}
{"compound": "COc1ccc(CN(CCCl)CCCl)cc1Cl", "activation": "inactive: 8.66%"}
{"compound": "CC(C)c1ccc(NC2CCN(C(=O)OC(C)(C)C)CC2)cc1", "activation": "inactive: -4.68%"}
{"compound": "O=C(NCC1(N2CCOCC2)CCCCC1)c1cc(F)c(F)cc1Cl", "activation": "inactive: 16.5%"}
{"compound": "COc1cc(OC)c(C(=O)NCC2(N(C)C)CCCCC2)cc1OC", "activation": "inactive: -2.86%"}
{"compound": "Cc1cc(C)cc(N(C(=O)c2ccccc2)C2CCN(C(=O)OC(C)(C)C)CC2)c1", "activation": "inactive: -9.09%"}
{"compound": "O=C(NCC1(N2CCCCC2)CCCCC1)c1ccc(Cl)nc1", "activation": "inactive: -4.38%"}
{"compound": "CCOC(=O)N1CCC(Nc2ccc(OC)cc2)CC1", "activation": "inactive: 2.92%"}
{"compound": "COc1ccc(Cl)cc1C(=O)NCC1(N2CCOCC2)CCCCC1", "activation": "inactive: 8.32%"}
{"compound": "O=C(NCC1(N2CCCCC2)CCCCC1)c1ccc(Cl)s1", "activation": "inactive: -0.032%"}
{"compound": "N#CC1(Nc2ccccc2)CCN(Cc2ccccc2)CC1", "activation": "inactive: 1.94%"}
{"compound": "O=C(OC1CN2CCC1CC2)C1c2ccccc2Oc2ccccc21", "note": "(configuration not stated)", "activation": "inactive: 3.2%"}
{"compound": "O=C(NCC1(N2CCCCC2)CCCCC1)c1cccs1", "activation": "inactive: 11.8%"}
{"compound": "O=C(NCC1(N2CCCCC2)CCCCC1)c1ccc(=O)[nH]c1", "activation": "inactive: 6.56%"}
{"compound": "CC(C)(C)OC(=O)N1CCC(N(C(=O)c2ccccc2)c2ccc(F)cc2)CC1", "activation": "inactive: 6.67%"}
{"compound": "COc1ccc(C(=O)NCC2(N3CCCCC3)CCCCC2)c(OC)c1OC", "activation": "inactive: 13.3%"}
{"compound": "COc1ccc(C(=O)NCC2(N3CCCCC3)CCCCC2)cc1", "activation": "inactive: -3.53%"}
{"compound": "CSc1ccccc1C(=O)NCC1(N2CCCCC2)CCCCC1", "activation": "inactive: 1.61%"}
{"compound": "Cc1ccc(OCC(C)C)c(CN(CCCl)CCCl)c1", "activation": "inactive: 5.91%"}
{"compound": "CCOC(=O)N1CCC(Nc2cccc(C)c2)CC1", "activation": "inactive: -5.99%"}
{"compound": "COc1cc(C(=O)NCC2(N(C)C)CCCCC2)ccc1OC(F)F", "activation": "inactive: -6.82%"}
{"compound": "CCOc1ccc(C)cc1CN(CCCl)CCCl", "activation": "inactive: -0.283%"}
{"compound": "CCOC(=O)N1CCC(Nc2ccc(F)cc2)CC1", "activation": "inactive: -12.2%"}
{"compound": "COc1ccc(NC2CCN(CCc3ccccc3)CC2)c(OC)c1", "activation": "inactive: -6.71%"}
{"compound": "CCCCOc1ccc(C(=O)NCC2(N3CCOCC3)CCCCC2)cc1", "activation": "inactive: 0.986%"}
{"compound": "O=C(NCC1(N2CCCCC2)CCCCC1)c1ccc(F)cc1", "activation": "inactive: -8.23%"}
